Structures can show the parent of a compound that is named as a salt. Where two headings read alike, the source gives them in different places.
Key:
CDK6 = CDK6 (Homo sapiens (Human), UniProt Q00534); assay: biochemical; type: biochemical
CDK4 = CDK4 (Homo sapiens (Human), UniProt P11802); assay: In vitro kinase inhibition, luminescence (ADP-Glo) with retinoblastoma substrate; type: biochemical

The chains behind the UniProt entries cited, without tags or fusion partners. Where a name states a change or a piece, a line headed by the entry shows the natural chain unless it says otherwise.
UniProt P11802: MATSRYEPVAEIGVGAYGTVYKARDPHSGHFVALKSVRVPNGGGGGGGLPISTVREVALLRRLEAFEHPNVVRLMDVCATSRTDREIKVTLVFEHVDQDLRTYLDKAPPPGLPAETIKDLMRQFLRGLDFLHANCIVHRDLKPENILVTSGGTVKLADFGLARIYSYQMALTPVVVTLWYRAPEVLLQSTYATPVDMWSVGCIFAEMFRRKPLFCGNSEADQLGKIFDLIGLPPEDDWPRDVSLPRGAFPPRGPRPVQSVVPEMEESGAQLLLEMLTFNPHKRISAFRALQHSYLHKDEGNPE

SMILES | IC50 (CDK6; read-out: CDK6 IC50) | IC50 (CDK4) | IC50 (CDK6)
CC(C)N1CCOc2c(F)cc(-c3nc(Nc4ccc5c(n4)CCNC5)ncc3F)cc21 [Compound 481, N-(5-fluoro-4-(8-fluoro-4-isopropyl-3,4-dihydro-2H-benzo[b][1,4]oxazin-6-yl)pyrimidin-2-yl)-5,6,7,8-tetrahydro-1,6-naphthyridin-2-amine] | 4 nM |  | 
CC(C)N1CCN(c2ccc(Nc3ncc(F)c(-c4cc(F)c5c(c4)N(C(C)C)CCO5)n3)cc2F)CC1 [Compound 17, 5-fluoro-N-(3-fluoro-4-(4-isopropylpiperazin-1-yl)phenyl)-4-(8-fluoro-4-isopropyl-3,4-dihydro-2H-benzo[b][1,4]oxazin-6-yl)pyrimidin-2-amine] | 3.5 nM |  | 
CC(C)N1CCOc2c(F)cc(-c3nc(Nc4cnn(C5CCN(C)CC5)c4)ncc3F)cc21 [Compound 497, 5-fluoro-4-(8-fluoro-4-isopropyl-3,4-dihydro-2H-benzo[b][1,4]oxazin-6-yl)-N-(1-(1-methylpiperidin-4-yl)-1H-pyrazol-4-yl)pyrimidin-2-amine] |  | 6 nM | 
CC(C)N1CCOc2c(F)cc(-c3nc(Nc4ccc(N5CCC(C)(O)CC5)cn4)ncc3F)cc21 [Compound 484, 1-(6-((5-fluoro-4-(8-fluoro-4-isopropyl-3,4-dihydro-2H-benzo[b][1,4]oxazin-6-yl)pyrimidin-2-yl)amino)pyridin-3-yl)-4-methylpiperidin-4-ol] | 93 nM |  | 
CC(C)N1CCOc2c(F)cc(-c3nc(Nc4ccc(N5CCC(CCO)CC5)cn4)ncc3F)cc21 [Compound 491, 2-(1-(6-((5-fluoro-4-(8-fluoro-4-isopropyl-3,4-dihydro-2H-benzo[b][1,4]oxazin-6-yl)pyrimidin-2-yl)amino)pyridin-3-yl)piperidin-4-yl)ethan-1-ol] | 31 nM |  | 
CC(C)N1CCOc2c(F)cc(-c3nc(Nc4ccc(N5CCNCC5)c(C#N)c4)ncc3F)cc21 [Compound 21, 5-((5-fluoro-4-(8-fluoro-4-isopropyl-3,4-dihydro-2H-benzo[b][1,4]oxazin-6-yl)pyrimidin-2-yl)amino)-2-(piperazin-1-yl) benzonitrile] | 8 nM | 6 nM | 
CC(C)N1CCc2ccc(Nc3ncc(F)c(-c4cc(F)c5c(c4)N(C(C)C)CCO5)n3)cc2C1 [Compound 19, N-(5-fluoro-4-(8-fluoro-4-isopropyl-3,4-dihydro-2H-benzo[b][1,4]oxazin-6-yl)pyrimidin-2-yl)-2-isopropyl-1,2,3,4-tetrahydroisoquinolin-7-amine] | 1 nM | 1 nM | 
CC(C)N1CCOc2c(F)cc(-c3nc(Nc4ccc(C5CCNCC5)c(F)c4)ncc3F)cc21 [Compound 18, 5-fluoro-N-(3-fluoro-4-(piperidin-4-yl)phenyl)-4-(8-fluoro-4-isopropyl-3,4-dihydro-2H-benzo[b][1,4]oxazin-6-yl) pyrimidin-2-amine] | 15 nM | 10 nM | 
COc1cc(Nc2ncc(F)c(-c3cc(F)c4c(c3)N(C(C)C)CCO4)n2)ccc1N1CCNCC1 [Compound 29, 5-fluoro-4-(8-fluoro-4-isopropyl-3,4-dihydro-2H-benzo[b][1,4]oxazin-6-yl)-N-(3-methoxy-4-(piperazin-1-yl)phenyl)pyrimidin-2-amine] | 13 nM | 1 nM | 
CC(C)N1CCOc2c(F)cc(-c3nc(Nc4ccc(N5CCN6CCCC6C5)c(F)c4)ncc3F)cc21 (stereo not drawn) [Compound 473, 5-fluoro-N-(3-fluoro-4-(hexahydropyrrolo[1,2-a]pyrazin-2(1H)-yl)phenyl)-4-(8-fluoro-4-isopropyl-3,4-dihydro-2H-benzo[b][1,4]oxazin-6-yl)pyrimidin-2-amine] | 105 nM |  | 
CC(C)N1CCOc2c(F)cc(-c3nc(Nc4ccn(C5=CCNCC5)c(=O)c4)ncc3F)cc21 [Compound 39, 4-((5-fluoro-4-(8-fluoro-4-isopropyl-3,4-dihydro-2H-benzo[b][1,4]oxazin-6-yl)pyrimidin-2-yl)amino)-1′,2′,3′,6′-tetrahydro-2H-[1,4′-bipyridin]-2-one] | 7.5 nM | 4 nM | 
CC(C)N1CCOc2c(F)cc(-c3nc(Nc4ccc(N5CCN(C)CC5=O)cn4)ncc3F)cc21 [Compound 472, 1-(6-((5-fluoro-4-(8-fluoro-4-isopropyl-3,4-dihydro-2H-benzo[b][1,4]oxazin-6-yl)pyrimidin-2-yl)amino)pyridin-3-yl)-4-methylpiperazin-2-one] |  |  | 5 nM
CC(C)N1CCOc2c(F)cc(-c3nc(Nc4ccc(N5CCN(C)CC5)c(F)c4)ncc3F)cc21 [Compound 14, 5-fluoro-N-(3-fluoro-4-(4-methylpiperazin-1-yl)phenyl)-4-(8-fluoro-4-isopropyl-3,4-dihydro-2H-benzo[b][1,4]oxazin-6-yl) pyrimidin-2-amine] | 2 nM | 3.5 nM | 
CC(C)N1CCOc2c(F)cc(-c3nc(Nc4cccc5c4CCNC5)ncc3F)cc21 [Compound 15, N-(5-fluoro-4-(8-fluoro-4-isopropyl-3,4-dihydro-2H-benzo[b][1,4]oxazin-6-yl)pyrimidin-2-yl)-1,2,3,4-tetrahydroisoquinolin-5-amine] | 30 nM | 37 nM | 
CC1CN(C(=O)c2ccc(Nc3ncc(F)c(-c4cc(F)c5c(c4)N(C(C)C)CCO5)n3)nc2)CC(C)O1 (stereo not drawn) [Compound 511, (2,6-dimethylmorpholino)(6-((5-fluoro-4-(8-fluoro-4-isopropyl-3,4-dihydro-2H-benzo[b][1,4]oxazin-6-yl)pyrimidin-2-yl)amino)pyridin-3-yl)methanone] | 16 nM |  | 
CC(C)N1CCOc2c(F)cc(-c3nc(Nc4ccc5c(c4)CCNC5)ncc3F)cc21 [Compound 13, N-(5-fluoro-4-(8-fluoro-4-isopropyl-3,4-dihydro-2H-benzo[b][1,4]oxazin-6-yl)pyrimidin-2-yl)-1,2,3,4-tetrahydroisoquinolin-6-amine] | 1.5 nM |  | 
CC(C)N1CCOc2c(F)cc(-c3nc(Nc4ccc(N5CCNCC5)c(F)c4)ncc3F)cc21 [Compound 12, 5-fluoro-N-(3-fluoro-4-(piperazin-1-yl)phenyl)-4-(8-fluoro-4-isopropyl-3,4-dihydro-2H-benzo[b][1,4]oxazin-6-yl)pyrimidin-2-amine hydrochloride] | 2 nM | 12 nM | 
CCN1CCN(Cc2ccc(Nc3ncc(F)c(-c4cc(F)c5c(c4)N(C(C)C)CCO5)n3)nc2)CC1 [Compound 4, N-(5-((4-ethylpiperazin-1-yl)methyl)pyridin-2-yl)-5-fluoro-4-(8-fluoro-4-isopropyl-3,4-dihydro-2H-benzo[b][1,4]oxazin-6-yl)pyrimidin-2-amine] |  | 0.7 nM | 
CC(C)N1CCOc2c(F)cc(-c3nc(Nc4ccc(N5CCC(N(C)C)CC5)c(C(F)(F)F)c4)ncc3F)cc21 [Compound 178, N-(4-(4-(dimethylamino)piperidin-1-yl)-3-(trifluoromethyl)phenyl)-5-fluoro-4-(8-fluoro-4-isopropyl-3,4-dihydro-2H-benzo[b][1,4]oxazin-6-yl)pyrimidin-2-amine] | 98 nM |  | 
CC(C)N1CCOc2c(F)cc(-c3nc(Nc4ccc(N5CCNCC5)cc4F)ncc3F)cc21 [Compound 11, 5-fluoro-N-(2-fluoro-4-(piperazin-1-yl)phenyl)-4-(8-fluoro-4-isopropyl-3,4-dihydro-2H-benzo[b][1,4]oxazin-6-yl)pyrimidin-2-amine] | 8 nM | 6 nM | 
CC(=O)N1CCN(c2ccc(Nc3ncc(F)c(-c4cc(F)c5c(c4)N(C(C)C)CCO5)n3)nc2)CC1 [Compound 474, 1-(4-(6-((5-fluoro-4-(8-fluoro-4-isopropyl-3,4-dihydro-2H-benzo[b][1,4]oxazin-6-yl)pyrimidin-2-yl)amino)pyridin-3-yl)piperazin-1-yl)ethan-1-one] | 4.5 nM |  | 
CC(C)N1CCOc2c(F)cc(-c3nc(Nc4cc(C5CCN(C)CC5)no4)ncc3F)cc21 [Compound 495, N-(5-fluoro-4-(8-fluoro-4-isopropyl-3,4-dihydro-2H-benzo[b][1,4]oxazin-6-yl)pyrimidin-2-yl)-3-(1-methylpiperidin-4-yl)isoxazol-5-amine] | 39 nM | 14 nM | 
CC(C)N1CCOc2c(F)cc(-c3nc(Nc4ccc(N5CCSCC5)c(F)c4)ncc3F)cc21 [Compound 469, 5-fluoro-4-(8-fluoro-4-isopropyl-3,4-dihydro-2H-benzo[b][1,4]oxazin-6-yl)-N-(3-fluoro-4-thiomorpholinophenyl)pyrimidin-2-amine] | 200 nM |  | 
CC(C)N1CCOc2c(F)cc(-c3nc(Nc4ccc(N5CCC(N(C)C)CC5)nc4)ncc3F)cc21 [Compound 38, N-(6-(4-(dimethylamino)piperidin-1-yl)pyridin-3-yl)-5-fluoro-4-(8-fluoro-4-isopropyl-3,4-dihydro-2H-benzo[b][1,4]oxazin-6-yl)pyrimidin-2-amine] | 2 nM |  | 
CC(C)N1CCOc2c(F)cc(-c3nc(Nc4cc(C5CCN(C)CC5)n[nH]4)ncc3F)cc21 [Compound 499, 5-fluoro-4-(8-fluoro-4-isopropyl-3,4-dihydro-2H-benzo[b][1,4]oxazin-6-yl)-N-(3-(1-methylpiperidin-4-yl)-1H-pyrazol-5-yl)pyrimidin-2-amine] | 26 nM | 15 nM | 
CC(C)N1CCOc2c(F)cc(-c3nc(Nc4cnn(C5CCNCC5)c4)ncc3F)cc21 [Compound 448, 5-fluoro-4-(8-fluoro-4-isopropyl-3,4-dihydro-2H-benzo[b][1,4]oxazin-6-yl)-N-(1-(piperidin-4-yl)-1H-pyrazol-4-yl)pyrimidin-2-amine] | 8.8 nM |  | 
CC(C)N1CCOc2c(F)cc(-c3nc(Nc4ccc(N5CCC(N(C)C)CC5)c(F)c4)ncc3F)cc21 [Compound 25, N-(4-(4-(dimethylamino)piperidin-1-yl)-3-fluorophenyl)-5-fluoro-4-(8-fluoro-4-isopropyl-3,4-dihydro-2H-benzo[b][1,4]oxazin-6-yl)pyrimidin-2-amine] | 4 nM |  | 
CC(C)N1CCOc2c(F)cc(-c3nc(Nc4ccn(C5CCNCC5)c(=O)c4)ncc3F)cc21 [Compound 437, 4-((5-fluoro-4-(8-fluoro-4-isopropyl-3,4-dihydro-2H-benzo[b][1,4]oxazin-6-yl)pyrimidin-2-yl)amino)-1-(piperidin-4-yl)pyridin-2(1H)-one] | 5 nM |  | 

Source: patent publication US11174252B2, “Heterocyclic compounds as kinase inhibitors” (priority 2018, dated 2021)
